Measured values from patent publication US20040110775A1, “Cyclin dependent kinase inhibiting purine derivatives” (priority 2001, published 2004).

Biological target: CDK2 (Homo sapiens, UniProt P24941)
Assay: Inhibition of CDK2 (CDK inhibition assay)
Conditions: IC50 ± SD CDK2

## COc1ccc(Nc2nc(OCC3CCCCC3)c3[nH]cnc3n2)cc1 [NU6100, 6-Cyclohexylmethoxy-2-(4′-methoxyanilino)purine]
  IC50: 700 ± 30 nM

## COc1cccc(Nc2nc(OCC3CCCCC3)c3[nH]cnc3n2)c1 [NU6096, 6-Cyclohexylmethoxy-2-(3′-methoxyanilino)purine]
  IC50: 1800 ± 200 nM

## NC(=O)c1ccc(Nc2nc(OCC3CCCCC3)c3nc[nH]c3n2)cc1 [NU6141, 4-(6-Cyclohexylmethoxy-9H-purin-2-ylamino)benzamide]
  IC50: ~100 nM

## Clc1cccc(Nc2nc(OCC3CCCCC3)c3[nH]cnc3n2)c1 [NU6086, 2-(3′-Chloroanilino)-6-cyclohexylmethoxypurine]
  IC50: 2400 ± 300 nM

## Brc1cccc(Nc2nc(OCC3CCCCC3)c3[nH]cnc3n2)c1 [NU6095, 2-(3′-Bromoanilino)-6-cyclohexylmethoxypurine]
  IC50: 6800 ± 4800 nM

## CN(C)S(=O)(=O)c1ccc(Nc2nc(OCC3CCCCC3)c3nc[nH]c3n2)cc1 [NU6128, 4-(6-Cyclohexylmethoxy-2-ylamino)-N,N-dimethylbenzenesulfonamide]
  IC50: 56 ± 20 nM

## CNS(=O)(=O)c1ccc(Nc2nc(OCC3CCCCC3)c3nc[nH]c3n2)cc1 [NU6127, 4-(6-Cyclohexylmethoxy-2-ylamino)-N-methylbenzenesulfonamide]
  IC50: 7 ± 0.1 nM

## OCc1cccc(Nc2nc(OCC3CCCCC3)c3[nH]cnc3n2)c1 [NU6151, [3-(6-Cyclohexylmethoxy-9H-purin-2-ylamino)phenyl]methanol]
  IC50: 400 ± 100 nM

## CSc1cccc(Nc2nc(OCC3CCCCC3)c3nc[nH]c3n2)c1 [NU6101, 6-Cyclohexylmethoxy-2-(3′-methylmercaptoanilino)purine]
  IC50: 1700 ± 100 nM

## COc1cc(Nc2nc(OCC3CCCCC3)c3[nH]cnc3n2)ccc1S(N)(=O)=O [NU6161, 4-[6-Cyclohexylmethoxy-9H-purin-2-ylamino]-benzene(3′-methoxy)sulfonamide]
  IC50: 70 ± 8 nM
